Columns and labels:
Format in all cases: cell-based
[1] = target: KCNQ2/3 channels (Homo sapiens, UniProt O43525+O43526); experiment: Two-electrode voltage-clamp of KCNQ2/3 channels expressed in Xenopus laevis oocytes
From the text: (§1) cRNA transcripts encoding human KCNA1, KCNQ1, KCNQ2, KCNQ3, KCNQ4, or KCNQ5 were generated by in vitro transcription using the T7 polymerase message machine kit (Thermo Fisher Scientific), after vector linearization, from cDNA sub-cloned into plasmids incorporating X. laevis β-globin 5′ and 3′ UTRs flanking the coding region to enhance translation and cRNA stability. cRNA was quantified by spectrophotometry. Mutant cDNAs were generated by site-directed mutagenesis using a QuikChange kit according to manufacturer’s protocol (Stratagene, San Diego, CA) and corresponding cRNAs prepared as above. Defolliculated stage V and VI X. laevis oocytes (Ecocyte Bioscience, Austin, TX) were injected with Kv channel α subunit cRNAs (10 ng total per oocyte). Oocytes were incubated at 16 °C in Barth’s saline solution (Ecocyte) containing penicillin and streptomycin, with daily washing, for 3–5 days prior to two-electrode voltage-clamp (TEVC) recording.
(§2) Oocytes were placed in a small-volume oocyte bath (Warner) and viewed with a dissection microscope. Chemicals were sourced from Sigma. Bath solution was (in mM): 96 NaCl, 4 KCl, 1 MgCl2, 1 CaCl2, 10 HEPES (pH 7.6). […] MTX (DMSO), sorbic acid (ethanol), and glutaconic acid (molecular grade H2O) were stored at −20 °C as 1 M stocks. Oleamide was stored as a 1 mM stock in ethanol at 4 °C. Palmitic acid was conjugated with bovine serum albumin as a 1 mM stock and stored at −20 °C. All compounds were diluted to working concentrations each experimental day. All compounds were introduced to the recording bath via gravity perfusion at a constant flow of 1 ml/min for 3 min prior to recording. Pipettes were of 1–2 MΩ resistance when filled with 3 M KCl. Currents were recorded in response to pulses between −80 and +40 mV at 20 mV intervals, or a single pulse to +40 mV, from a holding potential of −80 mV, to yield current–voltage relationships, current magnitude, and for quantifying activation rate. TEVC data analysis was performed with Clampfit10.2 (Molecular Devices) and Graphpad Prism software (GraphPad, San Diego, CA, USA); values are stated as mean ± SEM. Normalized tail currents were plotted versus prepulse voltage and fitted with a single Boltzmann function:1 g=A1-A2/1+expV12-Vy+A2, where g is the normalized tail conductance, A1 is the initial value at −∞, A2 is the final value at +∞, V1/2 is the half-maximal voltage of activation, and Vs the slope factor. Activation and deactivation kinetics were fitted with single-exponential functions.

Sequences of proteins named here, by UniProt entry; tags and fusion partners are left off.
UniProt Q09470, whole entry: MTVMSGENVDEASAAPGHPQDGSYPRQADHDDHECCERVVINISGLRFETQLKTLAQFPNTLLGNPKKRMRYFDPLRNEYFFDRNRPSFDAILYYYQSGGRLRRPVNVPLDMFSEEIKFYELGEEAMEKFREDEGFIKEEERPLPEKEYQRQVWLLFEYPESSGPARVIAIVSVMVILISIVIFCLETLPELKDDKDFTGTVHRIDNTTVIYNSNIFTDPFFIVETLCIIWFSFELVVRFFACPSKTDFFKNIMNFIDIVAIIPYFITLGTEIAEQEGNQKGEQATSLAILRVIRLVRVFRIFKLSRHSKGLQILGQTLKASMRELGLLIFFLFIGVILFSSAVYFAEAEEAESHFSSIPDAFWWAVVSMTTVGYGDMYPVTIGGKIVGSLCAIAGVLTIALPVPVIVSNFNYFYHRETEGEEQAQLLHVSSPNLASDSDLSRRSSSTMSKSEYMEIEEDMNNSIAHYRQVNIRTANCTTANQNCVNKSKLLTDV

[2] = target: KCNQ2 (Homo sapiens, UniProt O43526); experiment: Two-electrode voltage-clamp of homomeric KCNQ2 in Xenopus oocytes
From the text: as §1, §2

[3] = target: KCNQ3* (KCNQ3-A315T) (Homo sapiens, UniProt O43525, A315T); experiment: cell-based; conditions: for Non-normalized tail current V0.5 / Normalized tail current V0.5: KCNQ3*
From the text: as §1, §2

[4] = target: KCNQ4 (Homo sapiens, UniProt P56696); experiment: cell-based; conditions: for Non-normalized tail current V0.5 / Normalized tail current V0.5 / Slope: KCNQ4
From the text: as §1, §2

[5] = target: KCNQ5 (Homo sapiens, UniProt Q9NR82); experiment: cell-based; conditions: for Non-normalized tail current V0.5 / Normalized tail current V0.5 / Slope: KCNQ5
From the text: as §1, §2

[6] = target: KCNQ2-W236L/KCNQ3-W265L channels (Homo sapiens, UniProt O43525+O43526, W236L/W265L); experiment: Two-electrode voltage-clamp of W236L-Q2/W265L-Q3 mutant channels in Xenopus oocytes; conditions: for Non-normalized tail current V0.5 / Normalized tail current V0.5 / Slope: W236L-Q2/W265L-Q3
From the text: as §1, §2

[7] = target: KCNA1 (Homo sapiens, UniProt Q09470); experiment: Two-electrode voltage-clamp of KCNA1 in Xenopus oocytes; conditions: KCNA1 (table title); 500 µM
From the text: as §1
Oocytes were placed in a small-volume oocyte bath (Warner) and viewed with a dissection microscope. Chemicals were sourced from Sigma. […] Currents were recorded in response to pulses between −80 and +40 mV at 20 mV intervals, or a single pulse to +40 mV, from a holding potential of −80 mV, to yield current–voltage relationships, current magnitude, and for quantifying activation rate. […]

SMILES: CC(C)CC(=O)O [IVA, isovaleric acid]
- KCNQ2/3 current increase at −60 mV [1]: ~ fivefold
- effect on voltage dependence of KCNQ2/3 activation (initial screen) ([1]; 100 µM, tail currents at −30 mV): negative-shifted
- EC50 ([1]; EC50, KCNQ2/3, current at −60 mV, calculated from dose responses): 228 ± 0.4 µM
- Non-normalized tail current V0.5 ([1]; KCNQ2/3, 1 µM): -43.6 ± 5.1 mV
- Normalized tail current V0.5 ([1]; KCNQ2/3, 1 µM): -43.8 ± 1.9 mV
- Slope ([1]; KCNQ2/3, 1 µM): 5.7 ± 2.1 mV
- τ act, -40 mV ([1]; KCNQ2/3, 1 µM): 494 ± 48 ms
- τ deact, -80 mV ([1]; KCNQ2/3, 1 µM): 159 ± 12 ms
- Non-normalized tail current V0.5 ([1]; KCNQ2/3, 10 µM): -44.2 ± 4.8 mV
- Normalized tail current V0.5 ([1]; KCNQ2/3, 10 µM): -45.1 ± 2.2 mV
- Slope ([1]; KCNQ2/3, 10 µM): 5.4 ± 1.8 mV
- τ act, -40 mV ([1]; KCNQ2/3, 10 µM): 474 ± 37 ms
- τ deact, -80 mV ([1]; KCNQ2/3, 10 µM): 170 ± 6 ms
- Non-normalized tail current V0.5 ([1]; KCNQ2/3, 100 µM): -45.4 ± 4.7 mV
- Normalized tail current V0.5 ([1]; KCNQ2/3, 100 µM): -46.8 ± 1.8 mV
- Slope ([1]; KCNQ2/3, 100 µM): 5.4 ± 1.1 mV
- τ act, -40 mV ([1]; KCNQ2/3, 100 µM): 442 ± 22 ms
- τ deact, -80 mV ([1]; KCNQ2/3, 100 µM): 192 ± 14 ms
- Non-normalized tail current V0.5 ([1]; KCNQ2/3, 500 µM): -48.7 ± 5.2 mV
- Normalized tail current V0.5 ([1]; KCNQ2/3, 500 µM): -50.1 ± 2.4 mV
- Slope ([1]; KCNQ2/3, 500 µM): 5.6 ± 1.2 mV
- τ act, -40 mV ([1]; KCNQ2/3, 500 µM): 406 ± 18 ms
- τ deact, -80 mV ([1]; KCNQ2/3, 500 µM): 219 ± 21 ms
- Non-normalized tail current V0.5 ([1]; KCNQ2/3, 5 mM): -50.1 ± 5.2 mV
- Normalized tail current V0.5 ([1]; KCNQ2/3, 5 mM): -51.2 ± 2.1 mV
- Slope ([1]; KCNQ2/3, 5 mM): 5.4 ± 1.1 mV
- τ act, -40 mV ([1]; KCNQ2/3, 5 mM): 414 ± 23 ms
- τ deact, -80 mV ([1]; KCNQ2/3, 5 mM): 241 ± 22 ms
- shift of activation V0.5 ([1]; KCNQ2/3, IVA, concentration not given): −11 mV
- EC50 [2]: 0.34 µM
- Non-normalized tail current V0.5 ([2]; KCNQ2, 0.1 µM): -45.9 ± 3.1 mV
- Normalized tail current V0.5 ([2]; KCNQ2, 0.1 µM): -46.6 ± 0.9 mV
- Slope ([2]; KCNQ2, 0.1 µM): 5.5 ± 0.9 mV
- Non-normalized tail current V0.5 ([2]; KCNQ2, 1 µM): -49.3 ± 6.9 mV
- Normalized tail current V0.5 ([2]; KCNQ2, 1 µM): -48.5 ± 1.3 mV
- Slope ([2]; KCNQ2, 1 µM): 7.0 ± 0.8 mV
- Non-normalized tail current V0.5 ([2]; KCNQ2, 10 µM): -50.7 ± 6.5 mV
- Normalized tail current V0.5 ([2]; KCNQ2, 10 µM): -50.1 ± 1.2 mV
- Slope ([2]; KCNQ2, 10 µM): 6.9 ± 0.8 mV
- Non-normalized tail current V0.5 ([2]; KCNQ2, 100 µM): -52.2 ± 5.6 mV
- Normalized tail current V0.5 ([2]; KCNQ2, 100 µM): -52.6 ± 1.8 mV
- Slope ([2]; KCNQ2, 100 µM): 7.8 ± 1.8 mV
- Non-normalized tail current V0.5 ([2]; KCNQ2, 500 µM): -50.4 ± 2.1 mV
- Normalized tail current V0.5 ([2]; KCNQ2, 500 µM): -50.4 ± 1.5 mV
- Slope ([2]; KCNQ2, 500 µM): 6.6 ± 0.9 mV
- Non-normalized tail current V0.5 ([2]; KCNQ2, 5 mM): -49.5 ± 1.4 mV
- Normalized tail current V0.5 ([2]; KCNQ2, 5 mM): -49.9 ± 1.4 mV
- Slope ([2]; KCNQ2, 5 mM): 6.3 ± 0.8 mV
- shift of activation V0.5 ([2]; KCNQ2, IVA, concentration not given): –9 mV
- EC50 [3]: 0.5 µM
- Non-normalized tail current V0.5 ([3]; 1 µM): -53.9 ± 1.3 mV
- Normalized tail current V0.5 ([3]; 1 µM): -53.1 ± 2.1 mV
- Non-normalized tail current V0.5 ([3]; 10 µM): -55.6 ± 1.5 mV
- Normalized tail current V0.5 ([3]; 10 µM): -55.8 ± 2.2 mV
- Non-normalized tail current V0.5 ([3]; 100 µM): -54.8 ± 0.9 mV
- Normalized tail current V0.5 ([3]; 100 µM): -53.9 ± 2.2 mV
- Non-normalized tail current V0.5 ([3]; 500 µM): -53.3 ±1.7 mV
- Normalized tail current V0.5 ([3]; 500 µM): -52.6 ± 2.1 mV
- Non-normalized tail current V0.5 ([3]; 5 mM): -51.7 ± 1.5 mV
- Normalized tail current V0.5 ([3]; 5 mM): -51.0 ± 2.3 mV
- EC50 [4]: 16.2 µM
- Non-normalized tail current V0.5 ([4]; 1 µM): -6.7 ± 9.1 mV
- Normalized tail current V0.5 ([4]; 1 µM): -6.2 ± 1.4 mV
- Slope ([4]; 1 µM): 14.6 ± 1.4 mV
- Non-normalized tail current V0.5 ([4]; 10 µM): -9.1 ± 10.4 mV
- Normalized tail current V0.5 ([4]; 10 µM): -7.2 ± 1.6 mV
- Slope ([4]; 10 µM): 16.2 ± 1.5 mV
- Non-normalized tail current V0.5 ([4]; 100 µM): -10.2 ± 11.1 mV
- Normalized tail current V0.5 ([4]; 100 µM): -7.5 ± 1.8 mV
- Slope ([4]; 100 µM): 15.3 ± 1.8 mV
- Non-normalized tail current V0.5 ([4]; 500 µM): -7.8 ± 11.9 mV
- Normalized tail current V0.5 ([4]; 500 µM): -7.5 ± 5.7 mV
- Slope ([4]; 500 µM): 16.2 ± 1.6 mV
- Non-normalized tail current V0.5 ([4]; 5 mM): -9.3 ± 12.1 mV
- Normalized tail current V0.5 ([4]; 5 mM): -6.1 ± 2.1 mV
- Slope ([4]; 5 mM): 15.6 ± 1.9 mV
- EC50 [5]: 1939 ± 4.7 µM
- Non-normalized tail current V0.5 ([5]; 1 µM): -41.5 ± 1.9 mV
- Normalized tail current V0.5 ([5]; 1 µM): -42.4 ± 1.7 mV
- Slope ([5]; 1 µM): 6.8 ± 2.1 mV
- Non-normalized tail current V0.5 ([5]; 10 µM): -41.8 ± 1.6 mV
- Normalized tail current V0.5 ([5]; 10 µM): -43.8 ± 1.7 mV
- Slope ([5]; 10 µM): 6.9 ± 1.7 mV
- Non-normalized tail current V0.5 ([5]; 100 µM): -41.6 ± 2.1 mV
- Normalized tail current V0.5 ([5]; 100 µM): -43.4 ± 1.4 mV
- Slope ([5]; 100 µM): 6.7 ± 1.5 mV
- Non-normalized tail current V0.5 ([5]; 500 µM): -42.9 ± 2.7 mV
- Normalized tail current V0.5 ([5]; 500 µM): -44.6 ± 1.8 mV
- Slope ([5]; 500 µM): 6.9 ± 1.6 mV
- Non-normalized tail current V0.5 ([5]; 5 mM): -44.6 ± 3.2 mV
- Normalized tail current V0.5 ([5]; 5 mM): -46.3 ± 2.1 mV
- Slope ([5]; 5 mM): 7.3 ± 1.6 mV
- Non-normalized tail current V0.5 ([6]; 1 µM): -55.8 ± 7.5 mV
- Normalized tail current V0.5 ([6]; 1 µM): -57.6 ± 1.1 mV
- Slope ([6]; 1 µM): 6.3 ± 1.4 mV
- Non-normalized tail current V0.5 ([6]; 10 µM): -53.7 ± 7.4 mV
- Normalized tail current V0.5 ([6]; 10 µM): -55.7 ± 1.7 mV
- Slope ([6]; 10 µM): 4.9 ± 1.6 mV
- Non-normalized tail current V0.5 ([6]; 100 µM): -53.7 ± 7.7 mV
- Normalized tail current V0.5 ([6]; 100 µM): -56.5 ± 2.0 mV
- Slope ([6]; 100 µM): 4.7 ± 2.4 mV
- Non-normalized tail current V0.5 ([6]; 500 µM): -51.1 ± 6.1 mV
- Normalized tail current V0.5 ([6]; 500 µM): -54.6 ± 1.8 mV
- Slope ([6]; 500 µM): 5.6 ± 1.4 mV
- Non-normalized tail current V0.5 ([6]; 5 mM): -51.9 ± 8.4 mV
- Normalized tail current V0.5 ([6]; 5 mM): -56.3 ± 3.7 mV
- Slope ([6]; 5 mM): 3.5 ± 3.5 mV
- KCNQ2/3-W236L/W265L current at −60 mV ([6]; at any concentration): did not increase
- Non-normalized tail current V0.5 [7]: -37.8 ± 3.2 mV
- Normalized tail current V0.5 [7]: -38.9 ± 1.1 mV

— article PMC6155021, “Ancient and modern anticonvulsants act synergistically in a KCNQ potassium channel binding pocket” (Nature Communications, 2018)
